Literature values, collected in patent publication US10155995B2 (dated 2018).

System: intracardiac IM
Conditions: single case report (Auriti et al. 2008)

interferon alpha-2b
regression of an intracardiac IM: regression
